System: OC[C@@H](O)[C@@H](O[C@@H]1O[C@H](CO[C@H]2OC[C@@H](O)[C@H](O)[C@H]2O)[C@@H](O[C@@H]2O[C@H](CO[C@H]3OC[C@@H](O)[C@H](O)[C@H]3O)[C@@H](O[C@@H]3O[C@H](CO[C@H]4OC[C@@H](O)[C@H](O)[C@H]4O)[C@@H](O)[C@H](O)[C@H]3O)[C@H](O)[C@H]2O)[C@H](O)[C@H]1O)[C@H](O)[C@@H](O)CO
Assay: purified protein, by the assay type
Details: pH 6.0

Substance “Equisetum fluviatile HTG (hetero-transglycosylase), recombinant, amino acids 22 to 280 of SEQ ID NO: 2, expressed in Pichia pastoris as fusion protein SEQ ID NO: 4 (α-factor signal sequence, c-myc epitope, polyhistidine tag) (Equisetum fluviatile)” has a Km (other: mixed-linkage glucan as donor-substrate) of 0.52 ± 0.06 µM and a Km (other: xyloglucan as donor-substrate) of 3.4 ± 0.4 µM.

Reference: patent US10647965B2, “Hetero-transglycosylase and uses thereof” (BASF SE, priority 2013, dated 2020)
